These results are taken from patent publication US6552087B1 (Abbott GmbH & Co. KG, priority 1999, dated 2003).

Amino acid sequences for entries named in this document (tags omitted).
UniProt P31652, whole entry: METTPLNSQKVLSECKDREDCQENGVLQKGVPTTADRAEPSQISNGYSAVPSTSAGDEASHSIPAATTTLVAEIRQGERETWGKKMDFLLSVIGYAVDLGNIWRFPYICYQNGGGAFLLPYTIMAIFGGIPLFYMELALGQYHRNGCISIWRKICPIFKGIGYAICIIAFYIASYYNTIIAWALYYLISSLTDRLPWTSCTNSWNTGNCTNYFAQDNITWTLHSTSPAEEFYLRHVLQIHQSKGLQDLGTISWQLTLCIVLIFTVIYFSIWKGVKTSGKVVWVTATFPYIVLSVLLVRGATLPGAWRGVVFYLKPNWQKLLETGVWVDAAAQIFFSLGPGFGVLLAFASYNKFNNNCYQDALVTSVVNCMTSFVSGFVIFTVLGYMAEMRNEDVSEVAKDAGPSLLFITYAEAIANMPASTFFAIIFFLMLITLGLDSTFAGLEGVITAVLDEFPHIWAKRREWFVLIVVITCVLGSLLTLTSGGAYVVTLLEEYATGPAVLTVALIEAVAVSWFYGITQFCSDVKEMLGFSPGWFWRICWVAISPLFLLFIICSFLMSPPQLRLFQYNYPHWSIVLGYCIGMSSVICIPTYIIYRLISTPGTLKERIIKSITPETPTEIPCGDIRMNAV

The structures appear in SMILES notation. Counter-ions that a name gives are not always drawn.

Assay [1] addresses T1, 5-HT reuptake site (Rattus norvegicus, UniProt P31652). The following applies: rat frontal cortex, [3H]paroxetine; mean ± SEM.
Assay [2] addresses T1, 5-HT reuptake site. The experiment in a line: biochemical.

What is called Ki is a measure of affinity in units of concentration, obtained from inhibition or displacement. A lower Ki goes with a stronger hold on the target. In the case of `CC(C)CC(N(C)C)C1(c2ccc(Cl)cc2)CCC1` (racemic) [Sibutramine, N,N-dimethyl-1-[1-(4-chlorophenyl)cyclobutyl]-3-methylbutylamine], the “Hill slope, 5-HT reuptake site” value on 5-HT reuptake site [1] is “[1.262 ± 0.05]”. At 5-HT reuptake site [2], this molecule yielded a Ki of 2140 ± 137 nM.
For the molecule `CC(C)C[C@@H](N(C)C)C1(c2ccc(Cl)cc2)CCC1` [(+)-Sibutramine, hydrochloride], on 5-HT reuptake site [1], the “Hill slope, 5-HT reuptake site” value is “[0.99 ± 0.03]”. For the same molecule, on 5-HT reuptake site [2], the affinity, expressed as Ki, was 2270 ± 263 nM.
For the molecule `CC(C)C[C@H](N(C)C)C1(c2ccc(Cl)cc2)CCC1.Cl` [(−)-Sibutramine, (−)-N-{1-[1-(4-chlorophenyl)cyclobutyl]-3-methylbutyl}-N,N-dimethylamine hydrochloride], the “Hill slope, 5-HT reuptake site” value at 5-HT reuptake site [1] is “[1.10 ± 0.03]”. Also, the Ki on 5-HT reuptake site [2] is 944 ± 112 nM.
